# Assay results reported in US6265617A, “Process for the preparation of 3,5,5-trimethylcyclohexa-3-en-1-one (β-isophorone) by isomerization of 3,5,5- trimethylcyclohexa-2-en-1-one (α-isophorone)” (Degussa-Huls Aktiengesellschaft, priority 1998, dated 2001).
# Experiment: Catalyst activity in liquid-phase isomerization of α-isophorone to β-isophorone
# Description: The apparatus for carrying out the isomerization consists of a mushroom-shaped heater, an isomerization flask with attached distillation column, through which a primary mixture composed of α-IP and β-IP is withdrawn, and a pump for recirculating the unreacted α-isophorone left after the purifying distillation of β-IP. […] The suspension is heated to boiling point at normal pressure and the quantity of the α-IP delivered by a Telab pump is coordinated with the quantity of the distillate withdrawn.
# The primary distillate obtained is conveyed to a distillation column operating at a partial vacuum of 5 mbar to 100 mbar. […]
# (§1) Technical sodium hydroxide in various concentrations is stirred into α-IP in the apparatus already described above. With the identical continuous procedure (see Example 1), at the top of the isomerization unit a withdrawal rate of 25 vol.% of a primary distillate is established, based on the quantity of isomerization and the reflux ratio.
# as §1, with “potassium carbonate” for “sodium hydroxide”, “ratio. […]” for “ratio.”
smiles,measurement,setting,value
"O=C(O)O [Na2 CO3, sodium carbonate]",space-time yield YR-Z based on the volume of the solution being isomerized,0.2 mol.% catalyst,0.0635 litersβ-IP /h/literSolution
same,Rate of formation of β-IP,"2 × 10^-1 mol.% catalyst per mol α-IP, boiling point, normal pressure, 25 vol.% withdrawal",63.5 g β-IP/h/liter α-IP
